Data published in PubChem BioAssay AID2099 (Broad Institute, 2009).
Only a part is listed here, and it is no random draw. Active and inactive are the calls of the source.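 The calls were made as follows: active = more than half of a compound's replicate wells show inhibition beyond 50%, single wells judged on their own value; inconclusive = some, but no more than half, of replicates pass 50% inhibition; inactive = no replicate passes 50% inhibition.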

Sequences of proteins named here, by UniProt entry; tags and fusion partners are left off. Residues count along the entry.
UniProt Q9H3R0, 1-420 limits assumed: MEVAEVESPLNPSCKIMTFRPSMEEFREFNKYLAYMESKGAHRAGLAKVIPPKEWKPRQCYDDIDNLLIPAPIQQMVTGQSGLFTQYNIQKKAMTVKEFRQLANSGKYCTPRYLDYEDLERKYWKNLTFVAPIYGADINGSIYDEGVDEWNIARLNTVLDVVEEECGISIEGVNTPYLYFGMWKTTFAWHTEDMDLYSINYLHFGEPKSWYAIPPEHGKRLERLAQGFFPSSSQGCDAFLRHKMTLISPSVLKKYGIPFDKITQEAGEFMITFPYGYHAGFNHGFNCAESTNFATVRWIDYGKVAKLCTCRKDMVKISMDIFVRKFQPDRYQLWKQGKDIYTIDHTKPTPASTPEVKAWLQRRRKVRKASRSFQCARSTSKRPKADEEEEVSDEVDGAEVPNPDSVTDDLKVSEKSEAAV

molecular target: Lysine-specific demethylase 4C (Homo sapiens) (UniProt Q9H3R0); assay: inhibitors of GASC-1 histone demethylase, primary screen, biochemical, fluorescence, DELFIA europium (AID 2099); conditions: GST-JMJD2C(1-420) H3K9me3 demethylation, at 2.35 µM, active compounds read high;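 also: signal counts dimethyl H3K9 product captured on neutravidin plate; 0% = median of DMSO wells and 100% = 0.3 times that DMSO median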

Row | SMILES | inhibition
1 | CCCOc1ccc(C(=O)NCC2(N(C)C)CCCCC2)cc1OC | inactive: -3.08%
2 | CN1CCC(Nc2cccc(F)c2)CC1 | inactive: -3.25%
3 | O=C(NCC1(N2CCCCC2)CCCCC1)c1cncc(Br)c1 | inactive: 0.172%
4 | COc1cc(OC)c(C(=O)NCC2(N(C)C)CCCCC2)cc1OC | inactive: -1.24%
5 | O=C(NCC1(N2CCOCC2)CCCCC1)c1cc(F)c(F)cc1Cl | inactive: -5.18%
6 | CC(C)c1ccc(NC2CCN(C(=O)OC(C)(C)C)CC2)cc1 | inactive: -4.2%
7 | COc1ccc(CN(CCCl)CCCl)cc1Cl | inactive: -21.6%
8 | CN(C)c1cccc(C(=O)NCC2(N3CCCCC3)CCCCC2)c1 | inactive: -31%
9 | O=C(NCC1(N2CCOCC2)CCCCC1)c1cc(=O)[nH]c2ccccc12 | inactive: -13.5%
10 | COc1cc(C(=O)NCC2(N3CCCCC3)CCCCC2)ccc1OC(F)F | inactive: 2.6%
11 | COc1ccc(NC2CCN(C(=O)OC(C)(C)C)CC2)cc1 | inactive: 2.43%
12 | CN1CCN(CCOC(=O)C(O)(c2ccccc2)c2ccccc2)CC1 | inactive: -6.16%
13 | O=C(NCC1(N2CCCCC2)CCCCC1)c1cccc(C(F)(F)F)c1 | inactive: 12.4%
14 | CCN1CCC(Nc2ccc(Cl)cc2)CC1 | inactive: 7.22%
15 | N#CC1(Nc2ccccc2)CCN(CCc2ccccc2)CC1 | inactive: 7.75%
16 | O=C(NCC1(N2CCCCC2)CCCCC1)c1cccc([N+](=O)[O-])c1 | inactive: 6.27%
17 | O=C(NCC1(N2CCCCC2)CCCCC1)c1ccc(OC(F)F)cc1 | inactive: 5.62%
18 | CCOC(=O)N1CCC(Nc2cccc(C)c2)CC1 | inactive: 9.2%
19 | COc1cc(C(=O)NCC2(N(C)C)CCCCC2)ccc1OC(F)F | inactive: -1.75%
20 | Cc1ccc(OCC(C)C)c(CN(CCCl)CCCl)c1 | inactive: -5.19%
21 | O=C(NCC1(N2CCCCC2)CCCCC1)c1ccc(F)cc1 | inactive: 3.86%

Row | SMILES | inhibition
22 | CCOC(=O)N1CCC(Nc2ccc(F)cc2)CC1 | inactive: 6.53%
23 | COc1ccc(NC2CCN(CCc3ccccc3)CC2)c(OC)c1 | inactive: 80.7%
24 | CCOc1ccc(C)cc1CN(CCCl)CCCl | inactive: -1.56%
25 | O=C(NCC1(N2CCCCC2)CCCCC1)c1ccc(Cl)s1 | inactive: -3.43%
26 | N#CC1(Nc2ccccc2)CCN(Cc2ccccc2)CC1 | inactive: -0.711%
27 | O=C(OC1CN2CCC1CC2)C1c2ccccc2Oc2ccccc21 (stereo not drawn) | inactive: -10.3%
28 | CCOC(=O)N1CCC(Nc2ccc(OC)cc2)CC1 | inactive: -0.152%
29 | Cc1cc(C)cc(N(C(=O)c2ccccc2)C2CCN(C(=O)OC(C)(C)C)CC2)c1 | inactive: -3.35%
30 | O=C(NCC1(N2CCOCC2)CCCCC1)c1cc2ccccc2o1 | inactive: 6.53%
31 | CSc1ccccc1C(=O)NCC1(N2CCCCC2)CCCCC1 | inactive: 11.1%
32 | COc1ccc(C(=O)NCC2(N3CCCCC3)CCCCC2)cc1 | inactive: 0.0901%
33 | COc1ccc(C(=O)NCC2(N3CCCCC3)CCCCC2)c(OC)c1OC | inactive: 6.4%
34 | CC(C)(C)OC(=O)N1CCC(N(C(=O)c2ccccc2)c2ccc(F)cc2)CC1 | inactive: -26.9%
35 | O=C(NCC1(N2CCCCC2)CCCCC1)c1ccc(=O)[nH]c1 | inactive: 25.4%
36 | O=C(NCC1(N2CCCCC2)CCCCC1)c1cccs1 | inactive: -1.22%
37 | CN1CCC(Nc2ccc(Cl)cc2)CC1 | inactive: -5.63%
38 | CCCOc1ccc(C)cc1CN(CCCl)CCCl | inactive: -5.76%
39 | COc1cccc(C(=O)N(c2cc(C)cc(C)c2)C2CCN(C(=O)OC(C)(C)C)CC2)c1 | inactive: 8.12%
40 | COc1cc(OC)cc(C(=O)NCC2(N3CCOCC3)CCCCC2)c1 | inactive: -0.806%
41 | CCC(CO)(C(=O)OC1CN2CCC1CC2)c1ccccc1 (stereo not drawn) | inactive: 29%
42 | CC(C)(C)OC(=O)N1CCC(Nc2ccccc2)CC1 | inactive: 11.1%

Row | SMILES | inhibition
43 | O=C(O)C1(Nc2ccccc2)CCN(Cc2ccccc2)CC1 | inactive: -21%
44 | CCCOc1ccc(C(=O)NCC2(N(C)C)CCCCC2)cc1 | inactive: 2.97%
45 | CCOc1ncccc1C(=O)NCC1(N2CCOCC2)CCCCC1 | inactive: -3.92%
46 | CN1CCC(Nc2ccc(F)c(Cl)c2)CC1 | inactive: 0.625%
47 | O=C(NCC1(N2CCCCC2)CCCCC1)c1ccco1 | inactive: 9.6%
48 | CN(C)c1ccc(C(=O)NCC2(N3CCCCC3)CCCCC2)cc1 | inactive: -3.2%
49 | CCN1CCC(Nc2cccc(F)c2)CC1 | inactive: 0.268%
50 | Cc1ccc(C(=O)NCC2(N3CCCCC3)CCCCC2)o1 | inactive: -4.64%
51 | Fc1ccccc1NC1CCN(Cc2ccccc2)CC1 | inactive: 4.65%
52 | COc1cc(OC)cc(C(=O)NCC2(N3CCCCC3)CCCCC2)c1 | inactive: -1.88%
53 | CN(C)C1(CNC(=O)c2cccc(C#N)c2)CCCCC1 | inactive: 3.01%
54 | c1ccc(CN2CCC(Nc3ccccc3)CC2)cc1 | inactive: -10.8%
55 | CCCN1CCC(Nc2cc(OC)cc(OC)c2)CC1 | inactive: -10.1%
56 | N#Cc1ccc(C(=O)NCC2(N3CCCCC3)CCCCC2)cc1 | inactive: 6%
57 | CC(C)(C)OC(=O)N1CCC(N(C(=O)c2ccccc2)c2ccc(Cl)cc2)CC1 | inactive: -13.2%
58 | CCc1cc(C(=O)NCC2(N3CCCCC3)CCCCC2)sc1C | inactive: -0.526%
59 | O=C(OC1CN2CCC1CC2)C1c2ccccc2C=Cc2ccccc21 (stereo not drawn) | inactive: -8.37%
60 | CCOC(=O)N1CCC(Nc2ccc(C)cc2)CC1 | inactive: -14.6%
61 | COc1ccc(C(=O)NCC2(N3CCOCC3)CCCCC2)cc1OC | inactive: 13.5%
62 | COc1cc(C(=O)NCC2(N3CCOCC3)CCCCC2)cc(OC)c1C | inactive: -4.63%
63 | O=C(NCC1(N2CCOCC2)CCCCC1)c1cc(Br)ccc1Cl | inactive: -3.04%
